## Yeast mating assay 2: variants of the scFv Ab-91

Reference: Engelhart et al. 2022, doi:10.1038/s41597-022-01779-4. File: FLAb, binding data.

The target is the same throughout: PDVDLGDISGINAS, from the HR2 region of SARS-CoV-2 spike.

Parent: Ab-91, a human scFv built as VL, three GGGGS repeats, VH. Only the CDRs of the heavy chain vary.
VL: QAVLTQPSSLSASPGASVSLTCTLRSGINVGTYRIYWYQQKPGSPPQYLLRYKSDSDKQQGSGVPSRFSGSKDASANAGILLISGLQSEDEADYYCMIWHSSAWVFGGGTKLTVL
VH: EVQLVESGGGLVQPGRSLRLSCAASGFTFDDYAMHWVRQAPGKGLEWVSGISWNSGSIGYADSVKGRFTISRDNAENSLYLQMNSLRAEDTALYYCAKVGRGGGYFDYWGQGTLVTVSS

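In library AAYL51, one, two or three CDR residues were substituted; doubles and triples were drawn at random. Affinity was read by AlphaSeq, a pooled yeast mating assay with surface-displayed partners. Pairs that bind mate more often; barcode pairs of the diploids are counted by sequencing. Each replicate has its own calibration line, from reference interactions of the BCL2 family. The assay was run in three technical replicates.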

Variants are written as CDR1, CDR2 and CDR3 of the heavy chain (limits as in the source). Parent: GFTFDDYAMH, GISWNSGSIGYADSVK, VGRGGGYFDY. Values are log10 of the apparent Kd in nM; lower means stronger binding. "nd" marks a missing value. The strain was present, yet no cells mated with the target were sequenced in that replicate, which points to weak or no binding.

| # | CDR-H1 | CDR-H2 | CDR-H3 | log10 Kd, replicates | empty controls |
|---|---|---|---|---|---|
| 1 | GFTFDDYAMH | GKSWNSGSIGYADSVK | VGRVGGYFDM | nd / nd / nd | 2 of 9 (5.75) |
| 2 | GFTFDDYAMH | GISWNSGSIGYAISVK | NGRGGGYFDY | nd / nd / nd | 0 of 9 |
| 3 | GFTFWDSACH | GISWNSGSIGYADSVK | VGRGGGYFDY | 1.51 / 1.29 / 1.22 | 1 of 9 (4.53) |
| 4 | GFTHDDYAMH | GISGNSGSIGYFDSVK | VGRGGGYFDY | 3.59 / nd / nd | 0 of 9 |
| 5 | RFTFDDYAMH | GISWNMGSILYADSVK | VGRGGGYFDY | nd / nd / nd | 2 of 9 (3.30) |
| 6 | GFTFDDYYMH | GISWNSGSIGYADSDK | VGRGRGYFDY | 4.89 / 4.86 / 6.34 | 6 of 9 (5.30) |
| 7 | GFWFDDYAMH | GIFWNSGSIGYADSVK | VGRGGGYCDY | nd / nd / nd | 0 of 9 |
| 8 | GFTFDDIAMH | GLSWNSGSIGYADSVK | VGRGGGYFDY | nd / nd / nd | 0 of 9 |
| 9 | GFTFDDYAMH | MISWNSGSIQYADSVK | VGLGGGYFDY | nd / nd / nd | 0 of 9 |
| 10 | GFTFDDYAMH | GISWNSGMIGYADSVK | VGPGGGYWDY | nd / nd / nd | 0 of 9 |
| 11 | GFTFDDYAMH | GISLYSGSIGYADSVK | VGRDGGYFDY | 4.86 / nd / nd | 2 of 9 (5.29) |
| 12 | GFTTDDYAMH | GISRNSGSIGYADSVK | VGRGGGYFDW | 3.26 / nd / nd | 0 of 9 |
| 13 | GFGFDDDAMH | GISWNSGSIGYADSVK | VGRGGGYFQY | nd / 4.16 / nd | 1 of 9 (3.42) |
| 14 | GFTFDDWAMM | GISWNSGSIGYADRVK | VGRGGGYFDY | nd / 4.83 / nd | 1 of 9 (3.84) |
| 15 | GFTFDDYAMH | GISWNPGSIGYADSVY | VGRNGGYFDY | nd / nd / 4.93 | 3 of 9 (4.65) |
| 16 | GFTFDDYAMH | GISEESGSIGYADSVK | VGRGGGYFDY | nd / nd / nd | 2 of 9 (3.98) |
| 17 | GHTFDDYHMH | GISWNSPSIGYADSVK | VGRGGGYFDY | nd / nd / nd | 0 of 9 |
| 18 | GFTFDDKEMH | GISWNSGSIGYAISVK | VGRGGGYFDY | nd / nd / nd | 2 of 9 (5.24) |
| 19 | GFTFDDYAMH | GISWNSGQIGYADSVG | VGRGWGYFDY | nd / nd / nd | 0 of 9 |
| 20 | GFTFDDYAMH | GISWNSGSLGYADSAK | VGRGHGYFDY | 3.99 / 3.43 / 3.59 | 2 of 9 (3.46) |
| 21 | GFTFDDYAMH | GISWNSGSIDYADSVK | VGRGLGNFDY | nd / nd / nd | 0 of 9 |
| 22 | GKTWDDYAGH | GISWNSGSIGYADSVK | VGRGGGYFDY | nd / nd / nd | 1 of 9 (4.62) |
| 23 | GFTKDDYAMH | GISWNSGSIGYADSVS | VGRDGGYFDY | nd / nd / nd | 1 of 9 (4.54) |
| 24 | GFTFDDYAMH | GRSWNSGDIGYADSVK | VGRGWGYFDY | 5.42 / nd / nd | 5 of 9 (4.73) |
| 25 | GFTFCDYFMH | GISWNSGSIGYADSVK | WGRGGGYFDY | 1.61 / 1.31 / 0.92 | 0 of 9 |
| 26 | GFTFDDYAMH | GISWNSGSIGYADSVK | VGRGGIYQDY | nd / nd / nd | 0 of 9 |
| 27 | GFTFDDYAMH | GISWNSGSIGYADSVK | EGRGGGYFDY | 4.72 / nd / nd | 1 of 9 (4.37) |
| 28 | GFTFDDYAMF | IISWNSGGIGYADSVK | VGRGGGYFDY | 4.10 / 4.68 / nd | 0 of 9 |
| 29 | GFTFDDYAMH | HISWNTLSIGYADSVK | VGRGGGYFDY | 5.41 / nd / nd | 1 of 9 (3.51) |
| 30 | GFTFDDYAMH | GIIWNSGSVGYADSVK | VGRGGGYNDY | 4.23 / nd / nd | 3 of 9 (4.20) |
| 31 | GFTFDDWAYH | GISWNSGPIGYADSVK | VGRGGGYFDY | nd / nd / nd | 1 of 9 (2.85) |
| 32 | GFTFDDYAMH | GISWNSGSIGYSDSYK | VGRGGGYFDY | nd / nd / nd | 0 of 9 |
| 33 | GFTFDDYAMH | GICWNSGSMGYADSWK | VGRGGGYFDY | nd / nd / nd | 3 of 9 (4.96) |
| 34 | GFTFDDYAMH | GISWNSGLIRYADSVK | VGRGGGKFDY | nd / nd / nd | 0 of 9 |
| 35 | GFTFDDYAMH | SISWNSGSIGYADWVK | VGRGGKYFDY | nd / 4.90 / nd | 1 of 9 (4.48) |
| 36 | GFTFDDYAMH | GISWNYGSICYAKSVK | VGRGGGYFDY | 4.77 / nd / nd | 2 of 9 (5.22) |
| 37 | FHTFDDYAMH | GISWNSGSIGPADSVK | VGRGGGYFDY | 3.89 / nd / nd | 2 of 9 (3.95) |
| 38 | GFTFKDYAMH | GISWNSGSIGYADDVK | VGRGGPYFDY | 4.65 / 4.34 / 4.35 | 2 of 9 (5.20) |
| 39 | GFTFDDYRMR | GISWNSGSIGYADSVK | VGQGGGYFDY | nd / nd / nd | 0 of 9 |
| 40 | GFTFDDYAMV | GISWNSGSIGYADSVK | VGRGGWYFDE | nd / 3.49 / nd | 1 of 9 (2.85) |
| 41 | GFTCDDYAMH | GCVWNSGSIGYADSVK | VGRGGGYFDY | nd / nd / nd | 0 of 9 |
| 42 | GFTFCDYAMH | GISWNSGSIGYADSVK | VGRGGGYFYY | 4.58 / 6.37 / 5.76 | 7 of 9 (4.94) |
| 43 | GFTFDDYAMH | GNSWNSGSIGYADSEH | VGRGGGYFDY | 4.58 / nd / 3.99 | 2 of 9 (4.19) |
| 44 | GFTFDDYAMH | GIYWNSGSIGYAISVK | VGRGGGYFDY | nd / nd / nd | 0 of 9 |
| 45 | GFTFDDWAMH | GISWNSGSIGYADSVM | EGRGGGYFDY | 4.45 / 6.00 / nd | 5 of 9 (4.89) |
| 46 | GFTQDLYAMH | GISWNSGSIGYADSVK | VGYGGGYFDY | nd / nd / nd | 0 of 9 |
| 47 | GFTFDDYAMH | GISWNSGSIGYADSVK | VGRGGGWDGY | 2.00 / 1.70 / 0.59 | 1 of 9 (3.33) |

Excerpt, the first 7 entries:

| CDR-H1 | CDR-H2 | CDR-H3 | log10 Kd, replicates | empty controls |
|---|---|---|---|---|
| GFTFDDYAMH | GKSWNSGSIGYADSVK | VGRVGGYFDM | nd / nd / nd | 2 of 9 (5.75) |
| GFTFDDYAMH | GISWNSGSIGYAISVK | NGRGGGYFDY | nd / nd / nd | 0 of 9 |
| GFTFWDSACH | GISWNSGSIGYADSVK | VGRGGGYFDY | 1.51 / 1.29 / 1.22 | 1 of 9 (4.53) |
| GFTHDDYAMH | GISGNSGSIGYFDSVK | VGRGGGYFDY | 3.59 / nd / nd | 0 of 9 |
| RFTFDDYAMH | GISWNMGSILYADSVK | VGRGGGYFDY | nd / nd / nd | 2 of 9 (3.30) |
| GFTFDDYYMH | GISWNSGSIGYADSDK | VGRGRGYFDY | 4.89 / 4.86 / 6.34 | 6 of 9 (5.30) |
| GFWFDDYAMH | GIFWNSGSIGYADSVK | VGRGGGYCDY | nd / nd / nd | 0 of 9 |

As a blank, each scFv also met three strains without target: over library AAYL51, 21% of these pairings were detected, typically at 4.54 and seldom below 3.26. Also given: how often the same scFv was detected with the empty control strains, with their mean in brackets.